# Ab-95 light chain CDR variants: yeast mating affinities

The target is the same throughout: PDVDLGDISGINAS, from the HR2 region of SARS-CoV-2 spike.

The variants keep the heavy chain, the linker and the frameworks of Ab-95 (scFv order VH, three GGGGS repeats, VL).
VH: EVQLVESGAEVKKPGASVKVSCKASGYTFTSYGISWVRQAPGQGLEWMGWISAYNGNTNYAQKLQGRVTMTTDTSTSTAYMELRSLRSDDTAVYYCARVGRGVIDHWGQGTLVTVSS
VL: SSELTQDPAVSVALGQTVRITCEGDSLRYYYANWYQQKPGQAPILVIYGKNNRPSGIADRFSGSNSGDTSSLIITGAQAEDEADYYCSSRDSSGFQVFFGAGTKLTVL

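Phage display of a naive human antibody library on the peptide gave the parent. Variants in AAYL52 differ from the parent at up to three CDR positions; double and triple changes were sampled at random. Affinity was read by AlphaSeq, a pooled yeast mating assay with surface-displayed partners. Binding brings cells together so that they mate, and sequencing counts the barcode pairs among the diploids. A regression on co-assayed BCL2-family reference pairs converts the normalised counts of each replicate to an apparent Kd. Each pool was mated in three replicate cultures.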

The parent's light chain CDRs are EGDSLRYYYAN, GKNNRPS, SSRDSSGFQVF; each variant's own CDRs replace them letter for letter.
Affinities are written as log10 Kd with Kd in nM; a lower number is a better binder.
The mean shown is taken over the replicates in which the pair was detected.
Where no diploid with the target was found in that replicate, the entry reads "ND": below detection, most likely a poor binder, though not proof of it.

| # | CDR-L1 | CDR-L2 | CDR-L3 | replicates, log10 nM | mean, log10 nM | signal with controls |
|---|---|---|---|---|---|---|
| 1 | EGDSLRAYYAN | GKNNRPS | SKRGSSGFQVF | ND 2.98 ND | 2.98 | 2 of 9 (3.73) |
| 2 | EGDSLRYYYAN | GKNWSSS | SSRDSSGFQVF | ND 3.25 3.10 | 3.17 | 1 of 9 (3.40) |
| 3 | EGDSLRKYYAN | GKNNRKS | SSRDSSGFQDF | 4.42 ND 3.49 | 3.95 | 4 of 9 (3.95) |
| 4 | EKDSLRYYYAS | GKNNRPS | SSRESSGFQVF | 5.73 5.15 4.63 | 5.17 | 1 of 9 (4.40) |
| 5 | EGDSLRYYYAN | YKNNRPS | SSRDSSGVQVG | 3.17 ND ND | 3.17 | 2 of 9 (3.26) |
| 6 | EGDFFRYYYAN | GKNNRPS | SSRDSLGFQVF | 3.29 ND ND | 3.29 | 1 of 9 (3.13) |
| 7 | EGDSLRYAYAN | GKNNAPS | SSRDSSSFQVF | 2.40 2.41 2.33 | 2.38 | 2 of 9 (4.95) |
| 8 | EGDSLRYYDAN | GKNNPPS | SSRDSSGFQVF | 1.98 1.94 1.94 | 1.95 | 2 of 9 (4.76) |
| 9 | ENDSLRYYYAN | LKNNRPS | CSRDSSGFQVF | 4.16 ND ND | 4.16 | 5 of 9 (4.19) |
| 10 | EGDSLRYYYAQ | GKTNRPS | SSRDRSGFQVF | ND 3.39 3.76 | 3.57 | 2 of 9 (3.19) |
| 11 | EGDSLREYYAN | GKNNRPS | SSRDSMGFQVF | 4.08 ND 2.77 | 3.43 | 1 of 9 (4.46) |
| 12 | EGDSLRYYYAN | YKNNRVS | SSRGSSGFQVF | 4.76 4.09 3.42 | 4.09 | 5 of 9 (4.07) |
| 13 | LGDSLRYYSAN | GINNRPS | SSRDSSGFQVF | 2.28 1.79 1.76 | 1.95 | 2 of 9 (4.45) |
| 14 | EGDSLRYYYAN | GKNNRPW | SSRDSPGFPVF | 3.95 3.62 3.80 | 3.79 | 5 of 9 (4.21) |
| 15 | ETDSLRYYYAN | YKNNRPS | SSRDSSGLQVF | ND ND ND | ND | 2 of 9 (3.76) |
| 16 | EGDSLRYYYAN | GKMNRPS | SQRDSSGFQLF | 3.38 ND 3.10 | 3.24 | 2 of 9 (3.51) |
| 17 | EGDSLRYYYAN | GKNNRRS | SDRDSSGFQVG | ND ND ND | ND | 2 of 9 (3.24) |
| 18 | EGDSLLYYYAN | GKNNPPS | SSRDSSGFPVF | ND ND 3.49 | 3.49 | 4 of 9 (3.84) |
| 19 | EGDTLRYYYAN | AKNNRPS | SSRDESGFQVF | 4.31 ND ND | 4.31 | 1 of 9 (4.14) |
| 20 | EGDSLRYYYAN | YKNNRPS | WSQDSSGFQVF | 4.50 3.94 4.37 | 4.27 | 4 of 9 (3.71) |
| 21 | EGDSLRYYPAG | AKNNRPS | SSRDSSGFQVF | 4.72 4.43 ND | 4.57 | 3 of 9 (3.97) |
| 22 | EGDSLVYYYAN | GKNNRPS | SDPDSSGFQVF | ND 3.53 ND | 3.53 | 5 of 9 (3.46) |
| 23 | EGDSLRYYYAN | GKNNRGS | SARDSSGFQVF | 2.80 2.73 2.20 | 2.58 | 0 of 9 |
| 24 | EGDSLRYYYAP | GKNNRFS | SSRDSSGFQVY | 4.27 ND ND | 4.27 | 6 of 9 (4.11) |
| 25 | EGDSLRYYYLN | GKNNRPS | SSRSSSGFQVF | 3.86 3.44 ND | 3.65 | 6 of 9 (4.21) |
| 26 | EGDSLRYYYAN | GDVNRPS | SSNDSSGFQVF | ND 3.23 3.39 | 3.31 | 6 of 9 (3.65) |
| 27 | EGDSLRYYYAS | GKSPRPS | SSRDSSGFQVF | ND ND ND | ND | 6 of 9 (3.77) |
| 28 | EGDSSRYYYAN | GKNERPS | SSRDSSGFQVE | ND ND ND | ND | 1 of 9 (3.19) |
| 29 | EGDSLEYYYAN | GKNNRPS | SSRDASGFQVN | 4.04 ND ND | 4.04 | 0 of 9 |
| 30 | EEDALRYYYAN | GKNNRPS | SSRDSDGFQVF | 2.59 2.65 2.83 | 2.69 | 1 of 9 (2.70) |
| 31 | EGPSLRYYYAN | GKNNRPS | SNRDSSGFQVF | 2.49 2.66 2.30 | 2.48 | 6 of 9 (3.87) |
| 32 | EGDSNRYYYAN | GKNNRIS | ISRDSSGFQVF | 4.14 4.62 4.63 | 4.46 | 4 of 9 (4.30) |
| 33 | EGDSLRYYYAN | GKNNRTS | SSKDSSGFQVF | ND ND ND | ND | 1 of 9 (2.81) |
| 34 | EGDSLRKYYAN | GKNNRPS | SSLDSSNFQVF | ND 4.24 2.92 | 3.58 | 1 of 9 (3.26) |
| 35 | EGDSLRYYYNN | GKNNRPS | SERDSSGFEVF | ND 4.61 3.04 | 3.82 | 1 of 9 (3.32) |
| 36 | EGDKLRYYYAN | GANNRPF | SSRDSSGFQVF | ND ND 3.79 | 3.79 | 3 of 9 (3.84) |
| 37 | EGDSLRYYYAN | MKNNRPS | SSLDSSGYQVF | ND 4.16 4.19 | 4.17 | 2 of 9 (3.87) |
| 38 | AGDSLWYYYAN | GCNNRPS | SSRDSSGFQVF | 3.67 4.53 ND | 4.10 | 4 of 9 (3.63) |
| 39 | EGGSLRYYYAN | GKNNRPS | SSRDSPGFQVF | 3.13 2.59 2.12 | 2.61 | 4 of 9 (4.39) |
| 40 | EGDSLRYNYAN | GKNNKPS | SSRTSSGFQVF | 1.51 1.18 0.96 | 1.22 | 0 of 9 |

Top 6 of the variants detected in all replicates, tightest first:

{"CDR-L1": "EGDSLRYNYAN", "CDR-L2": "GKNNKPS", "CDR-L3": "SSRTSSGFQVF", "replicates, log10 nM": "1.51 1.18 0.96", "mean, log10 nM": "1.22", "signal with controls": "0 of 9"}
{"CDR-L1": "LGDSLRYYSAN", "CDR-L2": "GINNRPS", "CDR-L3": "SSRDSSGFQVF", "replicates, log10 nM": "2.28 1.79 1.76", "mean, log10 nM": "1.95", "signal with controls": "2 of 9 (4.45)"}
{"CDR-L1": "EGDSLRYYDAN", "CDR-L2": "GKNNPPS", "CDR-L3": "SSRDSSGFQVF", "replicates, log10 nM": "1.98 1.94 1.94", "mean, log10 nM": "1.95", "signal with controls": "2 of 9 (4.76)"}
{"CDR-L1": "EGDSLRYAYAN", "CDR-L2": "GKNNAPS", "CDR-L3": "SSRDSSSFQVF", "replicates, log10 nM": "2.40 2.41 2.33", "mean, log10 nM": "2.38", "signal with controls": "2 of 9 (4.95)"}
{"CDR-L1": "EGPSLRYYYAN", "CDR-L2": "GKNNRPS", "CDR-L3": "SNRDSSGFQVF", "replicates, log10 nM": "2.49 2.66 2.30", "mean, log10 nM": "2.48", "signal with controls": "6 of 9 (3.87)"}
{"CDR-L1": "EGDSLRYYYAN", "CDR-L2": "GKNNRGS", "CDR-L3": "SARDSSGFQVF", "replicates, log10 nM": "2.80 2.73 2.20", "mean, log10 nM": "2.58", "signal with controls": "0 of 9"}

Nonspecific signal, from three strains lacking the peptide, appeared in 28% of pairings of library AAYL52, centred on 3.91 (5% of these signals below 2.90); values are not corrected for it. The control count says in how many pairings with the empty strains this scFv gave a signal, with their mean in brackets.
Parent in this assay: reference entry 2.31, copy in this library 2.25.

The measurements come from Engelhart et al. 2022 (doi:10.1038/s41597-022-01779-4) through the FLAb antibody collection.